This is a selection; strong and weak results do not stand in their true shares. Some tests of the compounds listed are not included; inactive here does not mean inactive elsewhere. Active and inactive are the calls of the source.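 Rule for the calls: active = binding response more than 3 SD above or below the average of its plate-row segment, actives on both sides; inconclusive = wells at one plate position flagged as instrument error; inactive = the rest.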
biological target: Mitogen-activated protein kinase kinase kinase 3 (Homo sapiens) (UniProt Q99759); experiment: compounds raising or lowering MEK5 association with MEKK3 PB1 – biochemical, wildtype MEKK3, multiplex bead flow cytometry, Alexa488-MEK5, primary screen (AID 1529); conditions: bead-based flow cytometry, Alexa488-MEK5 binding to MEKK3; at 10 µM; actives lie on both sides; 0 = blocked by unlabeled MEK5, 100 = vehicle;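 note: Alexa488 bead fluorescence after subtracting the streptavidin-only scavenger bead signal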

Sequences of proteins named here, by UniProt entry; tags and fusion partners are left off.
UniProt Q99759, whole entry: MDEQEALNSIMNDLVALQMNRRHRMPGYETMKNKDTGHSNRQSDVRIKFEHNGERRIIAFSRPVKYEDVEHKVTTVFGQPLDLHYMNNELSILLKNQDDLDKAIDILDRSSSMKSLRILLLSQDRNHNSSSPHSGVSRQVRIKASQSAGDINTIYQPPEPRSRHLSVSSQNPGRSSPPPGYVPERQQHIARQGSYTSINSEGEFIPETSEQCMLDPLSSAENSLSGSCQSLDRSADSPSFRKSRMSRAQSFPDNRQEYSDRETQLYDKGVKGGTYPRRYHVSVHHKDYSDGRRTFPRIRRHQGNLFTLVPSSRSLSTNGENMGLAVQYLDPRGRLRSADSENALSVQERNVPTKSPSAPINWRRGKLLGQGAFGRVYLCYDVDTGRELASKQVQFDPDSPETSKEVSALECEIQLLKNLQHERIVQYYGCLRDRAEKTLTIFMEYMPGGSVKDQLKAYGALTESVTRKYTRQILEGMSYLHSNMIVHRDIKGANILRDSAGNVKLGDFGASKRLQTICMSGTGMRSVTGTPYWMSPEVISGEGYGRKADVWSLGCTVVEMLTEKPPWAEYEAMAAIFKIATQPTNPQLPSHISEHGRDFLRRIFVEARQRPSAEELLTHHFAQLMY

Row | Compound | binding response (% of control)
1 | O=C(NCC1(N2CCCCC2)CCCCC1)c1cc([N+](=O)[O-])ccc1Cl | inactive: 73%
2 | CN1[C@@H]2CC[C@H]1CC(OC(=O)C(O)(c1ccccc1)c1ccccc1)C2 (some centres undefined) | inactive: 105%
3 | COc1cc(SC)ccc1C(=O)NCC1(N(C)C)CCCCC1 | inactive: 104%
4 | CCN(CC)CC(C)C(C)OC(=O)C(O)(c1ccccc1)c1ccccc1 (centres undefined) | inactive: 102%
5 | CC(C)N1C(=O)CC2(CCN(CCOC(=O)C(O)(c3ccccc3)c3ccccc3)CC2)C1=O | inactive: 101%
6 | Cc1ccc(C(=O)NCC2(N3CCCCC3)CCCCC2)cc1 | inactive: 103%
7 | CN(C)C1CCCC1OC(=O)C(O)(c1ccccc1)c1ccccc1 (centres undefined) | inactive: 104%
8 | CN(C)c1ccc(C(=O)NCC2(N(C)C)CCCCC2)cc1 | inactive: 103%
9 | Cc1ccccc1C(=O)NCC1(N2CCCCC2)CCCCC1 | inactive: 104%
10 | O=C(NCC1(N2CCCCC2)CCCCC1)c1cc(F)c(F)cc1Cl | inactive: 98%
11 | C=CCN1CCN(CCOC(=O)C(O)(c2ccccc2)c2ccccc2)CC1 | inactive: 107%
12 | COc1ccc(C(=O)NCC2(N(C)C)CCCCC2)cc1 | inactive: 101%
13 | O=C(NCC1(N2CCCCC2)CCCCC1)c1cccc(Br)c1 | inactive: 98%
14 | Cc1cc(C(=O)NCC2(N3CCCCC3)CCCCC2)ccc1[N+](=O)[O-] | inactive: 103%
15 | CCN1CCCC(OC(=O)C2(O)c3ccccc3C=Cc3ccccc32)C1 (centres undefined) | inactive: 99%
16 | CN(C)C1(CNC(=O)c2ccc(Br)cc2)CCCCC1 | inactive: 101%
17 | COc1cc(C(=O)NCC2(N(C)C)CCCCC2)c([N+](=O)[O-])cc1OC | inactive: 94%
18 | COc1ccc(Cl)cc1C(=O)NCC1(N(C)C)CCCCC1 | inactive: 108%
19 | COc1cccc(C(=O)NCC2(N3CCCCC3)CCCCC2)c1 | inactive: 102%
20 | O=C(NCC1(N2CCCCC2)CCCCC1)c1cccc(Cl)c1 | inactive: 99%
21 | O=C(OC1CN2CCC1CC2)C(CO)(c1ccccc1)c1ccccc1 (centres undefined) | inactive: 97%
22 | COc1ccc(Br)c(C(=O)NCC2(N3CCCCC3)CCCCC2)c1 | inactive: 97%
23 | CC(C)Oc1ccc(C(=O)NCC2(N(C)C)CCCCC2)cc1 | inactive: 102%
24 | CN(C)c1cccc(C(=O)NCC2(N(C)C)CCCCC2)c1 | inactive: 104%
